In ChEMBL document CHEMBL1212808, “The p110 delta structure: mechanisms for selectivity and potency of new PI(3)K inhibitors” (Nat Chem Biol, 2010):

Molecular target: T1, Phosphatidylinositol 4,5-bisphosphate 3-kinase catalytic subunit delta isoform (Homo sapiens, UniProt O00329)
T1 sequence (O00329 whole entry): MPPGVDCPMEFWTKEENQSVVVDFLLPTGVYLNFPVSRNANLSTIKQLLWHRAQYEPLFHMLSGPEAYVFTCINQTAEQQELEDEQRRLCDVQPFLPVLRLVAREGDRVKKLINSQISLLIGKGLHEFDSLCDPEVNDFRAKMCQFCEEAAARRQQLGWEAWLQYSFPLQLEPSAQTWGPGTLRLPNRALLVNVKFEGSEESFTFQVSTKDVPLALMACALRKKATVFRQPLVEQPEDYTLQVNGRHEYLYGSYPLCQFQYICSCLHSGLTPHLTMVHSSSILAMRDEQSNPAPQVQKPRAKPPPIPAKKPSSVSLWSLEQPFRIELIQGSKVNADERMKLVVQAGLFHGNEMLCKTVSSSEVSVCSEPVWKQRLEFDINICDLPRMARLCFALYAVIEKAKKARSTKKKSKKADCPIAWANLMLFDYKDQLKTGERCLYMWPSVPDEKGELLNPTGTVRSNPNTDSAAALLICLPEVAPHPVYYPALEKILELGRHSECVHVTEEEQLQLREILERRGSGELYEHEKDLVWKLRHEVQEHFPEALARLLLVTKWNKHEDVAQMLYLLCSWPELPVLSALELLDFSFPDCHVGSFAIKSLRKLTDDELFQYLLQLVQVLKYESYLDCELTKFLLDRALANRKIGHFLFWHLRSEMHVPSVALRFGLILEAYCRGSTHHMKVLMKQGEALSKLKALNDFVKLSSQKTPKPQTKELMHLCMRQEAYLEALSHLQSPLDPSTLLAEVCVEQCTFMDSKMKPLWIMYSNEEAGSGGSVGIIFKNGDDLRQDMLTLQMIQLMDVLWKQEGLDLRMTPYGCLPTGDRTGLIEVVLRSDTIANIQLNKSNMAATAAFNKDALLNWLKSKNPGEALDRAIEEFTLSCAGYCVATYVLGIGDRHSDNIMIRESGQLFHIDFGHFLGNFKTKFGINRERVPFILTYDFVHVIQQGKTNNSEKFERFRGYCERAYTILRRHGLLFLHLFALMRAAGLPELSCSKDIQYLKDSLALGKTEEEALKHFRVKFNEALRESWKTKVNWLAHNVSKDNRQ
Experiment: Inhibition of p110delta

Structure (SMILES)	IC50 [nM]
CC(=O)Nc1nc2ccc(-c3nn(Cc4cc5ccccc5nc4N4CCN(C)CC4)c4ncnc(N)c34)cc2s1	1
CC(C)n1nc(C#Cc2cccc(O)c2)c2c(N)ncnc21	21
